This assay concerns the target human islet amyloid polypeptide1-37 (hIAPP) (Homo sapiens, UniProt P10997). Put plainly: AFM morphology of aggregates, hIAPP. In kind it is biochemical. To be noted: pure hIAPP 20 μM, 24 h. An outline of the steps: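 hIAPP at 20 μM was incubated at 37 °C, alone or with 5–20 μM defensin. AFM images were taken at time points of the ThT kinetics runs, including 24 h and 36 h. Aggregate heights and lengths were measured from the images and reported as maximum, mean and minimum values.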

Chains of the proteins cited; added tags and fusions are not shown. Residues count along the entry.
UniProt P10997, 34-70: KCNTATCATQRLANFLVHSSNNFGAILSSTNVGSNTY

The structures appear in SMILES notation.

Take `CC[C@H](C)[C@H](NC(=O)[C@H](C)NC(=O)CNC(=O)[C@H](Cc1ccccc1)NC(=O)[C@H](CC(N)=O)NC(=O)[C@H](CC(N)=O)NC(=O)[C@H](CO)NC(=O)[C@H](CO)NC(=O)[C@H](Cc1c[nH]cn1)NC(=O)[C@@H](NC(=O)[C@H](CC(C)C)NC(=O)[C@H](Cc1ccccc1)NC(=O)[C@H](CC(N)=O)NC(=O)[C@H](C)NC(=O)[C@H](CC(C)C)NC(=O)[C@H](CCCNC(=N)N)NC(=O)[C@H](CCC(N)=O)NC(=O)[C@@H](NC(=O)[C@H](C)NC(=O)[C@@H]1CSSC[C@H](NC(=O)[C@@H](N)CCCCN)C(=O)N[C@@H](CC(N)=O)C(=O)N[C@@H]([C@@H](C)O)C(=O)N[C@@H](C)C(=O)N[C@@H]([C@@H](C)O)C(=O)N1)[C@@H](C)O)C(C)C)C(=O)N[C@@H](CC(C)C)C(=O)N[C@@H](CO)C(=O)N[C@@H](CO)C(=O)N[C@H](C(=O)N[C@@H](CC(N)=O)C(=O)N[C@H](C(=O)NCC(=O)N[C@@H](CO)C(=O)N[C@@H](CC(N)=O)C(=O)N[C@H](C(=O)N[C@@H](Cc1ccc(O)cc1)C(N)=O)[C@@H](C)O)C(C)C)[C@@H](C)O` [hIAPP]: the “average height of fibrils” value was 15 nm. The “average length of fibrils” value (N up to 40) is 483 nm.
